Molecular target: H-PGDS (Homo sapiens (Human), UniProt O60760)
Assay: H-PGDS Fluorescence Polarization Binding Assay (FPBA)
Conditions: H-PGDS-MBP fusion enzyme, fluorescent probe, reduced glutathione 5 mM, 60-90 minutes at room temperature, 96-well format
Procedure: H-PGDS Fluorescence Polarization Binding Assay This assay essentially is available from Cayman Chemical Company as Catalog item #600007. The test data reported for the aforementioned Examples (H-PGDS FPBA IC50) were generated using a 96-well, instead of the 384-well, format. […] Assays were performed in 96-well microtiter plates in 100 μL of total sample volume. Excitation and emission wavelengths appropriate for the employed detection analyte were used. […] Twelve clean microfuge tubes were labeled A1 through A12. […] Dimethyl sulfoxide (50 μL) was added to each of tubes A1 through A11. The HQL-79 control solution was serially diluted by removing 50 μL from tube A12 and placing it in tube A11 with subsequent thorough mixing of the contents of tube A11. Next, 50 μL was removed from tube A11 and was placed into tube A10 with subsequent thorough mixing of the contents of tube A10. This process was repeated for tubes A9 through A2. […] The cocktail prepared was enough for either a standard 96-well, 384-well, or higher density plate. A test compound may be dissolved in DMSO, ethanol, or methanol at several concentrations when the titration endpoint is unknown. […] Assay cocktail (95 μL) was added to each plate well. […] The measurements were taken in the fluorescent polarization mode with the z-height set to the middle of the well and the G-factor set to 1.13 on a Tecan Safire 2 reader.

Sequences of proteins named here, by UniProt entry; tags and fusion partners are left off. A change or cut given only in a name is not applied to a line headed by its entry.
UniProt O60760: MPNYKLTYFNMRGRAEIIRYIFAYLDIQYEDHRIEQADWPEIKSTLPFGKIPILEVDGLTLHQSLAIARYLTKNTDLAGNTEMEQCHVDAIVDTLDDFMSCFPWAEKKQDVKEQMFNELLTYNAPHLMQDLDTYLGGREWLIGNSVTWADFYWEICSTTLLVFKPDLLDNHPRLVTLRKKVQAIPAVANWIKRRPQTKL

IC50: 150 nM
Structure (SMILES): CC(C)(C)OC(=O)N1CCC(c2ncc(-c3cnc(-c4ccccc4)nc3)[nH]2)C1 (racemic) [Example 28, (±)-tert-butyl 3-(5-(2-phenylpyrimidin-5-yl)-1H-imidazol-2-yl)pyrrolidine-1-carboxylate]

— patent publication US9126973B2, “Multiheteroaryl compounds as inhibitors of H-PGDS and their use for treating prostaglandin D2 mediated diseases” (Cayman Chemical Company, Incorporated, priority 2008, dated 2015)
